# Test results from PubChem BioAssay AID652105 (National Center for Advancing Translational Sciences (NCATS), 2013).
# The chains behind the UniProt entries cited, without tags or fusion partners.
# UniProt P48426, whole entry: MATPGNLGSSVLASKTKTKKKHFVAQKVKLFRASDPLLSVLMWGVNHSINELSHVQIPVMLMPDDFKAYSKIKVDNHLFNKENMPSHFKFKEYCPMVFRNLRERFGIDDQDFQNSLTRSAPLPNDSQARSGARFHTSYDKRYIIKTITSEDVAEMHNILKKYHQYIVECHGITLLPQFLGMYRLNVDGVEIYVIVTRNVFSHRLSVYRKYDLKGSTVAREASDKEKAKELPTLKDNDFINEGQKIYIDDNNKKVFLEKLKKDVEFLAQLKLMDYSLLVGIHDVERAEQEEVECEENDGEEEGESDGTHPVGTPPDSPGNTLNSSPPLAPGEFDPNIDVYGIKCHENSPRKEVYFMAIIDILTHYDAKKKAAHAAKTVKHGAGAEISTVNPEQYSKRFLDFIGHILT
# Only a part is listed here, and it is no random draw. Some salts or complexes appear as unconnected parts, following the source record. Activity calls are given as the source filed them. Rule for the calls: active = max response of -50% or lower; inconclusive = between -30% and -50%; inactive = -30% or higher.
# Target: Phosphatidylinositol 5-phosphate 4-kinase type-2 alpha (Homo sapiens) (UniProt P48426)
# Test: qHTS for Inhibitors of phosphatidylinositol 5-phosphate 4-kinase (PI5P4K); note: value at the top dose of about 77 µM
# Details: PI5P4Kalpha enzyme, ADP-Glo luminescence, 60 min; hits give low values
# Source text: In addition to finding PI5P, we discovered the type II phosphatidylinositol 5-phosphate 4-kinase (PI5P4K) family (alpha, beta, gamma isoforms) that catalyze the conversion of PI5P to PI(4,5)P2. Alternatively, PI(4,5)P2 can also be synthesized through phosphatidylinositol-4-phosphate (PI4P) by the type I phosphatidylinositol 4-phosphate 5-kinases (PI4P5K). These PI5P4K enzymes therefore represent one way by which cells can regulate endogenous PI5P levels and play important roles in insulin signaling and in stress responses.
# This proposal aims to identify and optimize specific modulators of human PI5P4K, phosphatidylinositol-5-phosphate 4-kinase (Type II PIPK), a family of kinases that regulate AKT signaling and tumor cell growth. In this project we aim to identify inhibitors of human PI5P4K using a quantitative high-throughput screening approach against the MLSMR containing ~400,000 small molecules.
# NIH Chemical Genomics Center [NCGC]
# NIH Molecular Libraries Probe Centers Network [MLPCN]
# Assay Submitter (PI): Atsuo Sasaki, Beth Israel Deaconess Medical Center
# 2 microL of PI5P4Kalpha/substrate buffer (columns 1-2, 5-48) are dispensed into Greiner white solid bottom 1536-well assay plates; column 3 receives only PI5P4Kalpha buffer as 0x substrate controls; column 4 receives only substrate buffer as 0x PI5P4Kalpha controls. Final assay buffer consists of 0.038 M HEPES pH 7.4, 0.28 mM EGTA, 0.1% CHAPS, and 5% DMSO (final concentration). Compounds are then transferred via Kalypsys pin tool equipped with 1536-pin array (10 nL slotted pins, V&P Scientific, San Diego, CA). Following addition of compound, 1 microL of ATP (5 microM final concentration, all columns) is added to initiate the reaction. ATP is diluted in an assay buffer consisting of 0.02 M HEPES pH 7.4, 60 mM MgCl2, 15 microM ATP, and 0.1% CHAPS. The plates are then incubated at room temperature for 60 minutes. ADP-Glo reagent 1 is added (2 microL) and plates incubated for 45 minutes, before ADP-Glo reagent 2 (4 microL) is added and plates incubated for 30 minutes. They are then transferred to a ViewLux high-throughput CCD imager (PerkinElmer) wherein single end-point measurements of luminescence are acquired using a clear filter.
# % is set by controls: 0 for no effect and ±100 for the full control effect.
row,SMILES,max response
1,COc1ccc(C(c2nnnn2C2CCCC2)N2CCC(n3c(=O)[nH]c4ccccc43)CC2)cc1 (stereo not given),inactive: -0.147%
2,O=[N+]([O-])c1cc([N+](=O)[O-])c(Nc2ccc(Cl)cc2)c([N+](=O)[O-])c1,inactive: -0.565%
3,CCCOc1ccc(C(=O)NCC2(N(C)C)CCCCC2)cc1OC,inactive: 5.38%
4,Cc1ccc(C(=O)NCC2(N(C)C)CCCCC2)o1,inactive: 1.84%
5,O=C(OC1CN2CCC1CC2)c1ccc([N+](=O)[O-])cc1 (stereo not given),inactive: -2.19%
6,CN1CCC(Nc2cccc(F)c2)CC1,inactive: 10.9%
7,O=C(NCC1(N2CCCCC2)CCCCC1)c1cncc(Br)c1,inactive: 3.57%
8,COc1ccc2c(c1O)-c1c(O)c(OC)cc3c1[C@H](C2)[N+](C)(C)CC3.O=[N+]([O-])c1cc([N+](=O)[O-])c([O-])c([N+](=O)[O-])c1[O-],active: -66.3%
9,CCN(CC)CCCNc1ccccc1[N+](=O)[O-].O=[N+]([O-])c1cc([N+](=O)[O-])c(O)c([N+](=O)[O-])c1,inactive: 1.29%
10,O=C(NCC1(N2CCOCC2)CCCCC1)c1cc(F)c(F)cc1Cl,inactive: -0.0114%
11,CCC(c1nnnn1C(C)(C)C)N1CCC(n2c(=O)[nH]c3ccccc32)CC1 (stereo not given),inactive: -0.346%
12,COc1cc(OC)c(C(=O)NCC2(N(C)C)CCCCC2)cc1OC,inactive: 1.39%
13,CCCCn1nnnc1C(c1ccnc2ccccc12)N1CCC(n2c(=O)[nH]c3ccccc32)CC1 (stereo not given),inactive: -0.982%
14,CC(C)c1ccc(NC2CCN(C(=O)OC(C)(C)C)CC2)cc1,inactive: 5.06%
15,CCCCn1nnnc1C(c1ccccc1OC(F)(F)F)N1CCC(n2c(=O)[nH]c3ccccc32)CC1 (stereo not given),inactive: 7.16%
16,CN(C)c1cccc(C(=O)NCC2(N3CCCCC3)CCCCC2)c1,inactive: -1.29%
17,COc1ccc(CN(CCCl)CCCl)cc1Cl,inactive: -3.95%
18,O=C(NCC1(N2CCOCC2)CCCCC1)c1cc(=O)[nH]c2ccccc12,inactive: 1.93%
19,COc1cc(C(=O)NCC2(N3CCCCC3)CCCCC2)ccc1OC(F)F,inactive: -0.895%
20,COc1ccc(NC2CCN(C(=O)OC(C)(C)C)CC2)cc1,inactive: 2.47%
21,CC(C)c1ccc(C(=O)NCC2(N3CCOCC3)CCCCC2)cc1,inactive: -15.4%
22,CN1CCN(CCOC(=O)C(O)(c2ccccc2)c2ccccc2)CC1,inactive: 3.91%
23,CCCCn1nnnc1C(c1cccc2ccccc12)N1CCC(n2c(=O)[nH]c3ccccc32)CC1 (stereo not given),inactive: -3.28%

row,SMILES,max response
1,O=[N+]([O-])c1cc([N+](=O)[O-])c(NCC2CCS(=O)(=O)C2)c([N+](=O)[O-])c1 (stereo not given),inactive: 1.84%
2,O=C(NCC1(N2CCCCC2)CCCCC1)c1cccc(C(F)(F)F)c1,inactive: 8.03%
3,O=c1[nH]c2ccccc2n1C1CCN(C(c2ccccc2OC(F)(F)F)c2nnnn2C2CCCC2)CC1 (stereo not given),inactive: 4.39%
4,N#CC1(Nc2ccccc2)CCN(CCc2ccccc2)CC1,inactive: -3.23%
5,CCN1CCC(Nc2ccc(Cl)cc2)CC1,inactive: -3.98%
6,CSc1ccc(C(=O)NCC2(N3CCOCC3)CCCCC2)cc1,inactive: 1.21%
7,O=C(NCC1(N2CCCCC2)CCCCC1)c1cccc([N+](=O)[O-])c1,inactive: 0.341%
8,O=C(NCC1(N2CCCCC2)CCCCC1)c1ccc(OC(F)F)cc1,inactive: -8.08%
9,CC(C)(C)n1nnnc1C(c1ccccc1OC(F)(F)F)N1CCC(n2c(=O)[nH]c3ccccc32)CC1 (stereo not given),inactive: 1.29%
10,CCOC(=O)N1CCC(Nc2cccc(C)c2)CC1,inactive: 1.35%
11,COc1cc(C(=O)NCC2(N(C)C)CCCCC2)ccc1OC(F)F,inactive: 0.938%
12,O=c1[nH]c2ccccc2n1C1CCN(C(c2cccc3ccccc23)c2nnnn2C2CCCC2)CC1 (stereo not given),inactive: -1.33%
13,O=c1[nH]c2ccccc2n1C1CCN(C(c2ccccc2)c2nnnn2C2CCCCC2)CC1 (stereo not given),inactive: -1.35%
14,CCOC(=O)N1CCC(Nc2ccc(F)cc2)CC1,inactive: 0.556%
15,CCCCOc1ccc(C(=O)NCC2(N3CCOCC3)CCCCC2)cc1,inactive: -2.68%
16,O=P1(N(CCCl)CCCl)SCCCS1,inactive: -1.87%
17,CCCCn1nnnc1C(c1cc2ccccc2o1)N1CCC(n2c(=O)[nH]c3ccccc32)CC1 (stereo not given),inactive: 3.49%
18,O=C(NCC1(N2CCCCC2)CCCCC1)c1ccc(F)cc1,inactive: -0.0912%
19,O=C1CCN(Cc2ccccc2)CC1,inactive: -11.8%
20,CC(C)(C)n1nnnc1C(c1ccccc1)N1CCC(n2c(=O)[nH]c3ccccc32)CC1 (stereo not given),inactive: -3.9%
21,CCOc1ccc(C)cc1CN(CCCl)CCCl,inactive: 2.47%
22,COc1ccc(Cl)cc1C(=O)NCC1(N2CCOCC2)CCCCC1,inactive: 2.44%
